Yeast mating assay 2: variants of the scFv Ab-95

The measurements come from Engelhart et al. 2022 (doi:10.1038/s41597-022-01779-4) through the FLAb antibody collection.

Antigen: PDVDLGDISGINAS, a 14-residue peptide of the SARS-CoV-2 spike HR2 region.

Each scFv is VH, the linker GGGGSGGGGSGGGGS, VL, as in the parent Ab-95, and differs from it in the CDRs of the light chain only.
VH: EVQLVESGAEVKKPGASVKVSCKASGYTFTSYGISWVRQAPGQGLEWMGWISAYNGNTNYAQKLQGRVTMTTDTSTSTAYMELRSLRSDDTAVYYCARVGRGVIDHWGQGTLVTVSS
VL: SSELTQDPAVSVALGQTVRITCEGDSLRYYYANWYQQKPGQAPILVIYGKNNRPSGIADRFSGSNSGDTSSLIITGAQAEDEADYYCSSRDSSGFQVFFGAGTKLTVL

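AAYL52 was designed without a model: most single CDR substitutions and a random sample of double and triple ones. In AlphaSeq, yeast of one mating type display the scFv and yeast of the other type display the target. Mating (16 h, 30 °C) was followed by selection of diploids and sequencing of their barcodes. Each replicate has its own calibration line, from reference interactions of the BCL2 family. There are three technical replicates.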

The parent's light chain CDRs are EGDSLRYYYAN, GKNNRPS, SSRDSSGFQVF; each variant's own CDRs replace them letter for letter. Affinities are written as log10 Kd with Kd in nM; a lower number is a better binder. Averages over replicates are reported, and they cover detected replicates only. "ND" marks a missing value. The strain was present, yet no cells mated with the target were sequenced in that replicate, which points to weak or no binding.

| CDR-L1 | CDR-L2 | CDR-L3 | replicates, log10 nM | mean, log10 nM | empty controls |
|---|---|---|---|---|---|
| EGDSLRYYYGN | GKNNHPS | SSRDSSGFGVF | 4.62 / ND / ND | 4.62 | 5/9 (4.03) |
| EGDSLRYYYAN | NKNHRPS | SSRDSSGFQVF | 2.60 / 2.89 / 2.92 | 2.80 | 1/9 (4.60) |
| EGDYLRYYYAN | GKNNRPS | SSRDSNQFQVF | 4.09 / 3.69 / 3.48 | 3.75 | 4/9 (3.01) |
| ERDSLRYYYAN | GKNYRPS | SSRDSSGFQMF | 4.42 / 4.48 / ND | 4.45 | 3/9 (4.78) |
| EGDSLRYYYAY | GKNCRPS | SSEDSSGFQVF | ND / ND / ND | ND | 2/9 (4.87) |
| GGDSLRYYYAN | GKNNRPS | SCEDSSGFQVF | 4.61 / ND / ND | 4.61 | 1/9 (5.26) |
| EGDSLRYYYAL | GKNNRPS | SGRDSSGFIVF | ND / ND / ND | ND | 1/9 (4.68) |
| LGDSLRYYYAN | GKNNRPL | VSRDSSGFQVF | ND / ND / ND | ND | 1/9 (3.50) |
| EGDSFRYYYAN | GKNQRPS | SSRDSSGFQLF | 2.65 / 4.06 / ND | 3.36 | 2/9 (4.06) |
| EADSLRYWYAN | GKNNRPS | SSLDSSGFQVF | ND / ND / ND | ND | 0/9 |
| EGPSLRYYYAN | GKNNRPH | SSRDSSRFQVF | 3.26 / 3.43 / 3.00 | 3.23 | 5/9 (4.33) |
| ESDSTRYYYAN | GKNNRPS | NSRDSSGFQVF | 3.59 / ND / ND | 3.59 | 3/9 (4.40) |
| EGDSLRYYYAN | GKNNRPS | GSRDSSGYQVE | 2.61 / 2.77 / 1.81 | 2.40 | 0/9 |
| EGDSLRYYYAN | GKNNRPS | SNRDSSGNQVF | 4.43 / 3.07 / 3.62 | 3.71 | 2/9 (3.83) |
| RGDSLRYYYAN | DKNNRPS | SSRDSSGFVVF | 1.61 / 1.69 / 1.65 | 1.65 | 1/9 (3.34) |
| EGDSLRYYYAN | GKNNRPS | SSRWSSWNQVF | 3.18 / 3.07 / 3.13 | 3.13 | 0/9 |
| EGDSLRYYYAN | GMNNRPS | SSRDDLGFQVF | 2.75 / 2.46 / 2.30 | 2.50 | 4/9 (3.91) |
| EGDILRYYYAN | GLNNRPS | SSRDSSHFQVF | 5.03 / 3.60 / ND | 4.31 | 3/9 (3.79) |
| EGDSLRYYYAN | GKNGRPS | SSFDSSGFQVI | 3.81 / 3.95 / ND | 3.88 | 3/9 (3.46) |
| EGDSLRYYYAN | GKNNAPS | SSRDSSNFQVV | ND / ND / ND | ND | 0/9 |
| ELDTLRYYYAN | GKNNRPS | SSRDSSGFQDF | 4.80 / ND / 3.86 | 4.33 | 4/9 (3.81) |
| EGDSLRYYYPN | GKNNRPV | SSRFSSGFQVF | 1.27 / 1.04 / 0.72 | 1.01 | 4/9 (3.77) |
| EGDSLRVYYAN | GKNNRPS | SSRDWSGFQVF | ND / ND / ND | ND | 2/9 (3.96) |
| EGDSLRYYYAN | GWNNAPS | SSRDSSGFPVF | 4.00 / 3.64 / ND | 3.82 | 1/9 (3.51) |
| EGDSLREYYAN | GKQNRPS | SSRKSSGFQVF | 3.80 / ND / ND | 3.80 | 2/9 (4.88) |
| EGDSLRYYYAF | GKNNRPS | SSRDSSGFTMF | ND / ND / ND | ND | 1/9 (3.99) |
| EGFSLRYYYAN | EKNNRPS | SSRYSSGFQVF | 4.31 / ND / ND | 4.31 | 1/9 (5.29) |
| EGDSLRYYYAN | GKNNRPS | SSRDSSGFGVF | 3.10 / 2.93 / 3.19 | 3.08 | 2/9 (4.12) |
| EGDSLRYYYAF | GNNNRPS | SSRDSSGFQVF | 2.71 / 2.97 / 2.77 | 2.82 | 4/9 (4.04) |
| EGDSLRYYTAN | PKNNRPS | SSRDSSGFKVF | 3.74 / ND / ND | 3.74 | 3/9 (3.95) |
| EFDSLRYYYAN | GKNNRPS | SSRDSFTFQVF | ND / ND / ND | ND | 2/9 (3.74) |
| YGDCLRYYYAN | GKNNRPS | SSRDSSKFQVF | ND / ND / ND | ND | 2/9 (4.24) |

Parent in this assay: reference entry 2.31, copy in this library 2.25. As a blank, each scFv also met three strains without target: over library AAYL52, 28% of these pairings were detected, typically at 3.91 and seldom below 2.90. Also given: how often the same scFv was detected with the empty control strains, with their mean in brackets.